Here are results for one molecule from ChEMBL document CHEMBL5500350, “Advances in TRPV6 inhibitors for tumors by targeted therapies: Macromolecular proteins, synthetic small molecule compounds, and natural compounds” (Eur J Med Chem, 2024).

The assay has as its target T1, Transient receptor potential cation channel subfamily V member 6 (Homo sapiens, UniProt Q9H1D0).
T1 sequence (Q9H1D0 whole entry): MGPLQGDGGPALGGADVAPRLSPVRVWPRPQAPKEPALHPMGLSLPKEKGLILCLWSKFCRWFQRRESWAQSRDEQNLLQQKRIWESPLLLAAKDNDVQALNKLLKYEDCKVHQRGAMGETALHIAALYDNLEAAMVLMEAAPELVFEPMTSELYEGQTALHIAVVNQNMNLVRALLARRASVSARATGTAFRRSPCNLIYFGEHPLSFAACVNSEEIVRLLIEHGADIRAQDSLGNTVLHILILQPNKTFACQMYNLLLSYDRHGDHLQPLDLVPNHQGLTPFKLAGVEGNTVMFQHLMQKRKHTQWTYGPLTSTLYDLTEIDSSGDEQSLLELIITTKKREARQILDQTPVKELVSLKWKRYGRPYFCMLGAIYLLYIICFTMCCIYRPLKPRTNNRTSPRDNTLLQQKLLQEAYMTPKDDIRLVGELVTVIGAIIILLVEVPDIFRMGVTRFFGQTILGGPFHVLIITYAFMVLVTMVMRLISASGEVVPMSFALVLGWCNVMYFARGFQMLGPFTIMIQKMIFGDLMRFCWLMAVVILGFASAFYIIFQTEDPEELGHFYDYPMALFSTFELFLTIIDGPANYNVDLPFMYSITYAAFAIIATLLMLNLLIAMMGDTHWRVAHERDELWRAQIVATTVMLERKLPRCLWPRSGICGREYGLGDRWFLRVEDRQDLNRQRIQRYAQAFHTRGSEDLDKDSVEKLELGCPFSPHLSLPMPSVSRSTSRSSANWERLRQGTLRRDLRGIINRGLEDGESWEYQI

For `c1ccc([C@H]2CC[C@H](N3CCN(Cc4cccnc4)CC3)CC2)cc1`, the IC50 – broadly, the concentration that inhibits the measured activity by half – came to 11.2 µM.
